Laboratory results published in patent US20080045564A1 (priority 2006, published 2008).

Amino acid sequences for entries named in this document (tags omitted). A change or cut given only in a name is not applied to a line headed by its entry.
UniProt P05181: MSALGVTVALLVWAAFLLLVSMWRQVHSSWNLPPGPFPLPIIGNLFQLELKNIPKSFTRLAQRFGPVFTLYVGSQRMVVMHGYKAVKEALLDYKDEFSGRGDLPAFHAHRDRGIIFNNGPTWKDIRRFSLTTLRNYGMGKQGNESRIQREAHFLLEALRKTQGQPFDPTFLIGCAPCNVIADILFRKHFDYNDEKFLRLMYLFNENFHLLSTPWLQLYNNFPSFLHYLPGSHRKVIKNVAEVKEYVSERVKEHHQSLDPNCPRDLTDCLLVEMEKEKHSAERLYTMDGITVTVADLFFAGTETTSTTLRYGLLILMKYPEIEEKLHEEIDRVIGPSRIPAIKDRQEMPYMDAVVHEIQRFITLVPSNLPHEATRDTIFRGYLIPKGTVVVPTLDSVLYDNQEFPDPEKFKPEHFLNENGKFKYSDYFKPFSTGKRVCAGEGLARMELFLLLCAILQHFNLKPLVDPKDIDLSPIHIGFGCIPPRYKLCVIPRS
UniProt P33261, whole entry: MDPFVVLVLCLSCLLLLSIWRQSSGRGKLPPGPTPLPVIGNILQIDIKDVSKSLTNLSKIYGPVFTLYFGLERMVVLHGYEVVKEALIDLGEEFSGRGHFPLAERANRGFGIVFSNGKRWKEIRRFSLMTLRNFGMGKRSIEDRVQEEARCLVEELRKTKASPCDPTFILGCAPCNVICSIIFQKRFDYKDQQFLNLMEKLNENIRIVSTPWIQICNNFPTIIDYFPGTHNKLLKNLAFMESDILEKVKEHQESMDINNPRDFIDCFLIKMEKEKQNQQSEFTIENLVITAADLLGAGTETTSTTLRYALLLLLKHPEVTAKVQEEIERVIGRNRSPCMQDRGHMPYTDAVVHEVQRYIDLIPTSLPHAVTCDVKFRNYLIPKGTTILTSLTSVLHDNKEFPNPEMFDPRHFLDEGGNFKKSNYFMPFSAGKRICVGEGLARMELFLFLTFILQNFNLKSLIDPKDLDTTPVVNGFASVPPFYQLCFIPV

Legend:
[1] = target: recombinant human CYP2E1 (Homo sapiens, UniProt P05181); conditions: 30 min
[2] = target: recombinant human CYP2C19 (Homo sapiens, UniProt P33261); conditions: read-out: KM for 3-hydroxylation of quinine by CYP2C19; recombinant human CYP2C19 in human B lymphoblastoid cells; ± s.d.; Zhao et al.; cited from earlier work
[3] = test system: human CYP1A2; conditions: due to increased mRNA expression levels; Bapiro et al.; cited from earlier work

Substrate [1]: 0
Structure (SMILES): C=C[C@H]1C[N@@]2CC[C@H]1C[C@H]2[C@H](O)c1ccnc2ccc(OC)cc12 [quinine, cinchonan-9-ol, 6′-methoxy-, (8a,9R)-]
Km [2]: 46.3 ± 7.8 µM
induction of human CYP1A2 activity [3]: induced
